Test results published in PubChem BioAssay (EPA / NIEHS).
The list shows a part of the results, in another mix than the full data. Results filed as inconclusive are left out. Calls of active or inactive are those of the source. Rule for the calls, unless noted: active = hit-call score of the fitted dose curve at least 0.9, where 1 is the maximum; inactive = score below 0.9.

The chains behind the UniProt entries cited, without tags or fusion partners.
UniProt Q92753, whole entry: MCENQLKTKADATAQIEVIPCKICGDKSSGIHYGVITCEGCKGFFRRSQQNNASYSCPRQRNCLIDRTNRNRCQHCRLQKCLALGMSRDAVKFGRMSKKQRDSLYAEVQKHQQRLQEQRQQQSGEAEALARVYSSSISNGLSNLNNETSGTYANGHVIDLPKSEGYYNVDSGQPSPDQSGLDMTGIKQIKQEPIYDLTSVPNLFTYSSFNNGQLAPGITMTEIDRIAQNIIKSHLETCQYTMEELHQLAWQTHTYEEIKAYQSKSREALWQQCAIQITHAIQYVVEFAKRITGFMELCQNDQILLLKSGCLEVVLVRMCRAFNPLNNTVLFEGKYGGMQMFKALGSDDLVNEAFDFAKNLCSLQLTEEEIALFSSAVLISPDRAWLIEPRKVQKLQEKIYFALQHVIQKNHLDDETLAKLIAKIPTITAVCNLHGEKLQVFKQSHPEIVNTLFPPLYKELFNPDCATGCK
UniProt P51449, whole entry: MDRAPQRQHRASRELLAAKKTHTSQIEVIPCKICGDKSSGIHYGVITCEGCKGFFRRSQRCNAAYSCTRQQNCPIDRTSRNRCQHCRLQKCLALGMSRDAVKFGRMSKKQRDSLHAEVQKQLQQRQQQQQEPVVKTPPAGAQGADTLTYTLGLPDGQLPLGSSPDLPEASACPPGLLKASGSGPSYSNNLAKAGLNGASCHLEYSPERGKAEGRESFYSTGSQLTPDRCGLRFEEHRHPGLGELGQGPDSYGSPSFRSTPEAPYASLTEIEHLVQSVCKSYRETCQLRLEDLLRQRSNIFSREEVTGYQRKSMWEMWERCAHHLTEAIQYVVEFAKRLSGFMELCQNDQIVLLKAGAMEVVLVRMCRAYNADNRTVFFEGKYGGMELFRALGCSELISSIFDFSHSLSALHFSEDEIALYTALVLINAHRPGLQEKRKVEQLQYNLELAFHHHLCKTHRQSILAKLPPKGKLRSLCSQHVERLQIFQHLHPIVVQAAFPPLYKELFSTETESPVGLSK
UniProt P10827, whole entry: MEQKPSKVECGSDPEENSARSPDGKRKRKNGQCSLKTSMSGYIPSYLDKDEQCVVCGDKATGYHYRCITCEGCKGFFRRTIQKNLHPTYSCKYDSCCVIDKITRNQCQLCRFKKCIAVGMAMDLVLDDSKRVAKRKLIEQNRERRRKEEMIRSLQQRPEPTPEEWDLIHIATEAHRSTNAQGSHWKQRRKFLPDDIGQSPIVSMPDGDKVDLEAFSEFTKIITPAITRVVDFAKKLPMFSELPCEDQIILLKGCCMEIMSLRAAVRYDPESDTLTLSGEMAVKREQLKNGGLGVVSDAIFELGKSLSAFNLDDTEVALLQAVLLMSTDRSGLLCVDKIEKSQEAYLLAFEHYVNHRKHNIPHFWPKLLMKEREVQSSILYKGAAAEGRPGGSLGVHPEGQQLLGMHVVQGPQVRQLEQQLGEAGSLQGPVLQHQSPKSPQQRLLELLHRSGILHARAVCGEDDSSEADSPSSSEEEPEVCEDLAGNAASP
UniProt P16581, whole entry: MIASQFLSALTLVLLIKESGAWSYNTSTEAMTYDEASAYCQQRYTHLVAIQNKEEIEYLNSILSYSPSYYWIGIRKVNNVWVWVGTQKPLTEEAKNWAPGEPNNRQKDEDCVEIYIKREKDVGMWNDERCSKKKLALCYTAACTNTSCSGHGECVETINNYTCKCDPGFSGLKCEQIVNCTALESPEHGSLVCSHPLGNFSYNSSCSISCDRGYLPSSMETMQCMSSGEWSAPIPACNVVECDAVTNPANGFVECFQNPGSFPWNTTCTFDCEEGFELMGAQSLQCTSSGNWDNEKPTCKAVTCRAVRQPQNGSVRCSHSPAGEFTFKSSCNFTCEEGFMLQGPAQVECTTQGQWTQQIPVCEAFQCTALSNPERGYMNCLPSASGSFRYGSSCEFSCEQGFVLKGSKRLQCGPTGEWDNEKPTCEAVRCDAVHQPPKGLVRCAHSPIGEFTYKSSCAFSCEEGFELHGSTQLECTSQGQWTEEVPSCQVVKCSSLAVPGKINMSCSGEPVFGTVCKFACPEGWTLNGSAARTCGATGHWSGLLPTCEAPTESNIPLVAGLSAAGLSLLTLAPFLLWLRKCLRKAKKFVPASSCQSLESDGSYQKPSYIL
UniProt P11473, whole entry: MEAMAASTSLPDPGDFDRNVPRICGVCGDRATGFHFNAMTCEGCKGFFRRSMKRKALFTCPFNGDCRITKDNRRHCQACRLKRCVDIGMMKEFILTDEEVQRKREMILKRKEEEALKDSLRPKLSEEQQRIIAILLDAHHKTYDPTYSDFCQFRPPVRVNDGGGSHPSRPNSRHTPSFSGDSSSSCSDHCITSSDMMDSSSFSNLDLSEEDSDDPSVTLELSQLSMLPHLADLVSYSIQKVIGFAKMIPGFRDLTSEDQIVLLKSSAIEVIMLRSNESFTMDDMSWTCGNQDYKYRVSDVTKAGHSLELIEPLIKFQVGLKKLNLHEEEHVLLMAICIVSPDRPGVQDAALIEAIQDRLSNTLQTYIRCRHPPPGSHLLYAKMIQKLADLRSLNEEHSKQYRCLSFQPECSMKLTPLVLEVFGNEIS
UniProt P19793, whole entry: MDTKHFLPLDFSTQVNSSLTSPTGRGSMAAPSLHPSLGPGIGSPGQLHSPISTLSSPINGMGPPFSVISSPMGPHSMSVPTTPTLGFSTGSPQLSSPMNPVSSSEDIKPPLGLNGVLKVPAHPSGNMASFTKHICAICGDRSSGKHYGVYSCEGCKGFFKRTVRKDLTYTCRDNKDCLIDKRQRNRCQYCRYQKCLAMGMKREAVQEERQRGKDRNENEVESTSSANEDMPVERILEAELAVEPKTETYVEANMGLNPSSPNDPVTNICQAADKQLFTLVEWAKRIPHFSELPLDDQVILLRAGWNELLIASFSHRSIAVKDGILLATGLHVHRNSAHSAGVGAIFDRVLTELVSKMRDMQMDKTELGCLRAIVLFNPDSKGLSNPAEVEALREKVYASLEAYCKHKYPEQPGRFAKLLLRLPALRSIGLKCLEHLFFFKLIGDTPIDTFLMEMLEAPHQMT

Tests used:
[1] = target: human RAR-related Orphan Receptor beta (RORb), RORB (gene 6096) (UniProt Q92753); test: ATG_RORb_TRANS: Attagene TRANS-FACTORIAL HepG2 Assay for human RAR-related Orphan Receptor beta (RORb) (AID 2283010; active = hit-call score of the fitted dose curve at least 0.9, where 1 is the maximum)
Outline: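 HepG2 cells transiently transfected with GAL4-UAS reporter units expressing chimeric NR-Gal4 protein; reporter mRNA measured 24 h after dosing by RT-PCR, 6-FAM labelling and capillary electrophoresis. Gain-of-signal fitted relative to DMSO baseline.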

[2] = target: human RAR-related Orphan Receptor gamma (RORg), RORC (gene 6097) (UniProt P51449); test: ATG_RORg_TRANS: Attagene TRANS-FACTORIAL HepG2 Assay for human RAR-related Orphan Receptor gamma (RORg) (AID 2283011; active = hit-call score of the fitted dose curve at least 0.9, where 1 is the maximum)
Outline: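 Transient MRTU transfection of HepG2 (TRANS format, exogenous NR-Gal4 chimera). 24 h dosing. Total RNA → oligo(dT) RT → PCR → 6-FAM labelling → HpaI cut → CE. Gain vs DMSO.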

[3] = target: human Thyroid Receptor alpha (THRa1), THRA (gene 7067) (UniProt P10827); test: ATG_THRa1_TRANS: Attagene TRANS-FACTORIAL HepG2 Assay for human Thyroid Receptor alpha (THRa1) (AID 2283014; active = hit-call score of the fitted dose curve at least 0.9, where 1 is the maximum)
Outline: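 Transient HepG2 transfection, NR-Gal4 chimera driving GAL4-UAS reporters; 24 h compound exposure; total RNA, oligo(dT) RT, PCR, fluorescent primer extension, capillary electrophoresis. Upward direction vs DMSO control.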

[4] = read-out: E-selectin (Homo sapiens) (UniProt P16581); test: BSK_3C_Eselectin: BioMAP Diversity Plus: 3C Assay for Eselectin Biomarker Activity (AID 2283015); conditions: actives raise or lower the signal; primary human endothelial cells (HUVEC)
Outline: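 HUVEC, 3C stimulation; compound exposure 24 h; E-selectin by ELISA; gain- or loss-of-signal fitted bidirectionally vs DMSO baseline.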

[5] = read-out: Interleukin-1 alpha (IL1a), IL1A (gene 3552); test: BSK_BE3C_IL1a: BioMAP Diversity Plus: BE3C Assay for Interleukin-1 alpha (IL1a) Biomarker Activity (AID 2283016); conditions: actives raise or lower the signal; primary human bronchial epithelial cells
Outline: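 Human primary bronchial epithelial cells, 24 h chemical exposure; IL-1a quantified by ELISA, fitted bidirectionally against DMSO. Cytotoxicity assessed in parallel by SRB total-protein staining at the time of measurement.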

[6] = read-out: Monocyte Chemoattractant Protein-1 (MCP1), CCL2 (gene 6347); test: BSK_3C_MCP1: BioMAP Diversity Plus: 3C Assay for Monocyte Chemoattractant Protein-1 (MCP1) Biomarker Activity (AID 2283017); conditions: actives raise or lower the signal; primary human endothelial cells (HUVEC)
Outline: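 HUVEC, 3C system; 24 h chemical exposure; MCP-1 by ELISA; bidirectional curve fit vs DMSO baseline.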

[7] = read-out: Monocyte Chemoattractant Protein-1 (MCP1), CCL2 (gene 6347); test: BSK_4H_MCP1: BioMAP Diversity Plus: 4H Assay for Monocyte Chemoattractant Protein-1 (MCP1) Biomarker Activity (AID 2283018); conditions: actives raise or lower the signal; primary human endothelial cells (HUVEC)
Outline: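 Human umbilical vein endothelial cells (4H system) exposed to chemicals for 24 h in 96-well format. MCP-1 measured by ELISA; bidirectional fitting against DMSO, with SRB total-protein staining in parallel cultures for cytotoxicity.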

[8] = read-out: Human Leukocyte Antigen - DR isotype (HLADR), HLA-DRA (gene 3122); test: BSK_3C_HLADR: BioMAP Diversity Plus: 3C Assay for Human Leukocyte Antigen - DR isotype (HLADR) Biomarker Activity (AID 2283019); conditions: actives raise or lower the signal; primary human endothelial cells (HUVEC)
Outline: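 HUVEC, 3C stimulation, 24 h post-dose; HLA-DR by ELISA; bidirectional curve fit vs DMSO baseline; gain or loss of signal scored.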

[9] = read-out: Interleukin-8 (IL8), CXCL8 (gene 3576); test: BSK_3C_IL8: BioMAP Diversity Plus: 3C Assay for Interleukin-8 (IL8) Biomarker Activity (AID 2283020); conditions: actives raise or lower the signal; primary human endothelial cells (HUVEC)
Outline: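 Primary human umbilical vein endothelial cells were dosed for 24 h. IL-8 was quantified by ELISA and fitted bidirectionally against DMSO. Cytotoxicity was assessed in parallel cultures by SRB staining at 560 nm.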

[10] = read-out: Monokine induced gamma interferon (MIG), CXCL9 (gene 4283); test: BSK_3C_MIG: BioMAP Diversity Plus: 3C Assay for Monokine induced gamma interferon (MIG) Biomarker Activity (AID 2283021); conditions: actives raise or lower the signal; primary human endothelial cells (HUVEC)
Outline: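 HUVEC primary endothelial cultures dosed with chemical; MIG quantified by ELISA at 24 h. Data fitted bidirectionally against DMSO control, with parallel SRB total-protein staining for cytotoxicity.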

[11] = target: human Vitamin D Receptor (VDR), VDR (gene 7421) (UniProt P11473); test: ATG_VDR_TRANS: Attagene TRANS-FACTORIAL HepG2 Assay for human Vitamin D Receptor (VDR) (AID 2283022; active = hit-call score of the fitted dose curve at least 0.9, where 1 is the maximum)
Outline: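 RT-PCR/capillary electrophoresis read-out of reporter mRNA induction in transiently transfected HepG2; 24 h dosing; chimeric NR-Gal4 (TRANS format); gain-of-signal fit against DMSO baseline.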

[12] = BSK_3C_SRB: Viability Assessment in the BioMAP Diversity Plus: 3C Assay (AID 2283023); conditions: primary human endothelial cells (HUVEC);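 note: fitted both ways against DMSO so a hit may be signal rise or drop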
Outline: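 HUVEC, 24 h post-dose; 10% TCA fix, 0.1% SRB stain, A560 nm. Bidirectional curve fit vs DMSO negative control.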

[13] = read-out: Matrix Metallopeptidase 1 (MMP1), MMP1 (gene 4312); test: BSK_BE3C_MMP1: BioMAP Diversity Plus: BE3C Assay for Matrix Metallopeptidase 1 (MMP1) Biomarker Activity (AID 2283024); conditions: actives raise or lower the signal; primary human bronchial epithelial cells
Outline: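 Human primary bronchial epithelial cells (BE3C system) dosed for 24 h; MMP-1 quantified by ELISA. Bidirectional fit against DMSO; cytotoxicity tracked in parallel cultures by SRB total-protein staining.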

[14] = BSK_3C_Vis: BioMAP Diversity Plus: 3C Assay for Morphology Visualization (AID 2283025); conditions: primary human endothelial cells (HUVEC);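 note: fitted both ways so gain or loss versus DMSO counts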;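 for AC50: light microscopy image of cell morphology used as background control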
Outline: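 Human umbilical vein endothelial cell morphology was inspected by light microscopy 24 h after chemical dosing; scored bidirectionally relative to DMSO.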

[15] = read-out: Pselectin, SELP (gene 6403); test: BSK_4H_Pselectin: BioMAP Diversity Plus: 4H Assay for Pselectin Biomarker Activity (AID 2283026); conditions: actives raise or lower the signal; primary human endothelial cells (HUVEC)
Outline: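 Primary human umbilical vein endothelial cells were treated 24 h, and cell-surface P-selectin was then quantified by ELISA. Bidirectional fit versus DMSO; cytotoxicity checked in parallel cultures by SRB total-protein staining.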

[16] = BSK_4H_SRB: Viability Assessment in the BioMAP Diversity Plus: 4H Assay (AID 2283027); conditions: primary human endothelial cells (HUVEC);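 note: cells exposed to compound for 24 h before staining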
Outline: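 Human umbilical vein endothelial cells, 24 h after chemical dosing; total protein measured by 0.1% sulforhodamine B staining after 10% TCA fixation, read at 560 nm. Bidirectional fitting against DMSO.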

[17] = BSK_BE3C_SRB: Viability Assessment in the BioMAP Diversity Plus: BE3C Assay (AID 2283028); conditions: primary human bronchial epithelial cells
Outline: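 Primary human bronchial epithelium; chemical dosing, 24 h; 10% TCA fix, 0.1% SRB stain, A560; bidirectional fit vs DMSO baseline.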

[18] = read-out: Thrombomodulin, THBD (gene 7056); test: BSK_3C_Thrombomodulin: BioMAP Diversity Plus: 3C Assay for Thrombomodulin Biomarker Activity (AID 2283029); conditions: actives raise or lower the signal; primary human endothelial cells (HUVEC)
Outline: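 Human umbilical vein endothelial cells were exposed to chemicals for 24 h; cell-surface thrombomodulin quantified by ELISA, with bidirectional fitting against DMSO baseline.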

[19] = read-out: Urokinase-type plasminogen activator receptor (uPAR), PLAUR (gene 5329); test: BSK_4H_uPAR: BioMAP Diversity Plus: 4H Assay for Urokinase-type plasminogen activator receptor (uPAR) Biomarker Activity (AID 2283030); conditions: actives raise or lower the signal; primary human endothelial cells (HUVEC)
Outline: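 HUVEC, 24 h post-dose; uPAR by ELISA; bidirectional fit vs DMSO baseline.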

[20] = target: Retinoic acid receptor RXR-alpha (Homo sapiens) (UniProt P19793); test: ATG_RXRa_TRANS: Attagene TRANS-FACTORIAL HepG2 Assay for human Retinoid X Receptor alpha (RXRa) (AID 2283012; active = hit-call score of the fitted dose curve at least 0.9, where 1 is the maximum)
Outline: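 HepG2 cells transiently transfected with GAL4-UAS reporter units and chimeric RXRa-Gal4 protein, treated 24 h. Reporter mRNA measured by RT-PCR, fluorescent labelling, HpaI digestion and capillary electrophoresis. Induction fitted against DMSO.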

Measured: AC50

O=[N+]([O-])c1ccccc1[N+](=O)[O-]
active: [8] 27.2 µM | [14] 39 µM
inactive: [1] | [2] | [3] | [4] | [5] | [6] | [7] | [9] | [10] | [11] | [12] | [13] | [15] | [16] | [17] | [18] | [19]

ClCCOP(OCCCl)OCCCl
inactive: [1] | [20]

CC(C)OP(OC(C)C)OC(C)C
inactive: [20] | [3] | [4] | [5] | [6] | [7] | [8] | [9] | [10] | [11] | [12] | [13] | [14] | [15] | [16] | [17] | [18] | [19]

ClCCNCCCl
inactive: [1] | [2] | [3] | [11]

CCOP(=O)(Cl)Cl
inactive: [1] | [2]
